From ChEMBL document CHEMBL5137076, “SLL-627 Is a Highly Selective and Potent κ Opioid Receptor (KOR) Agonist with an Unexpected Nonreduction in Locomotor Activity” (2022)

The chains behind the UniProt entries cited, without tags or fusion partners.
UniProt P33535, whole entry: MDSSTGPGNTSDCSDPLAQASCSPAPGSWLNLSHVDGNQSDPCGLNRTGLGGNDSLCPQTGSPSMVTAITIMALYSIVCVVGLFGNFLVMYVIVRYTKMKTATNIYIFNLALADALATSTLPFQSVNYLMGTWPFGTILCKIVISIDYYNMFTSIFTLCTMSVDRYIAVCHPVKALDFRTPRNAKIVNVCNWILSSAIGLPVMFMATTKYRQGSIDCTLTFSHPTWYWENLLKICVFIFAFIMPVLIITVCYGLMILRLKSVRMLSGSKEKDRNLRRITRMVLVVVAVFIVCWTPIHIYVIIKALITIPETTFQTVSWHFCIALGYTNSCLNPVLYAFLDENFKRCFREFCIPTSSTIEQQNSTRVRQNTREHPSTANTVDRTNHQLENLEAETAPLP

How the values were obtained:
Homo sapiens = species: Homo sapiens; assay: Selectivity index, ratio of Ki for displacement of [3H]DAMGO from rat MOR expressed in CHO cell membranes to Ki for displacement of [3H]U69593 from human KOR expressed in CHO cell membranes
[1] = molecular target: Mu-type opioid receptor (Rattus norvegicus) (UniProt P33535); assay: Agonist activity at rat MOR expressed in CHO cell membranes assessed as maximal activity after 1 hr by [35S]GTPgammaS binding assay relative to control; conditions: Cell membrane, filed as agonist

Row | Structure (SMILES) | Ratio Ki (Homo sapiens) | Emax [1] [%]
1 | COc1ccc2c3c1O[C@H]1[C@@]4(OC)CC[C@@]5(C[C@@]4(C)[C@H](O)c4ccc(C(C)C)cc4)[C@@H](C2)N(CC2CC2)CC[C@]315 | 0.3 | 
2 | COc1cccc(C(=O)[C@]2(C)C[C@@]34CC[C@]2(OC)[C@@H]2Oc5c(OC)ccc6c5[C@@]23CCN(CC2CC2)[C@@H]4C6)c1 |  | 249
